# AlphaSeq binding of Ab-95 light chain variants to a spike HR2 peptide

Target peptide (SARS-CoV-2 spike, HR2 region): PDVDLGDISGINAS

Ab-95 is the parent antibody, in scFv form: VH, then a (GGGGS)3 linker, then VL. The heavy chain is unchanged in all variants.
VH: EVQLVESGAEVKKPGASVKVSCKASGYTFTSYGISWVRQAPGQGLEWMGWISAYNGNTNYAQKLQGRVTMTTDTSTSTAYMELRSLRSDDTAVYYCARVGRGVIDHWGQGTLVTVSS
VL: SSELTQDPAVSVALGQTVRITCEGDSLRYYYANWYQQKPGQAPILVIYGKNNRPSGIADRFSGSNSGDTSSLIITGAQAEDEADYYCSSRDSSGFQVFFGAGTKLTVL

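The parent was found by panning a naive human phage display library on the peptide. Library AAYL52 holds single substitutions and randomly drawn double and triple substitutions in the CDRs. The assay is AlphaSeq: two haploid yeast populations carry antibody and antigen on their surface. Mating (16 h, 30 °C) was followed by selection of diploids and sequencing of their barcodes. A regression on co-assayed BCL2-family reference pairs converts the normalised counts of each replicate to an apparent Kd. Mating was done three times.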

Changes read parent residue, position, new residue, counted from the first residue of the VL shown. Affinities are written as log10 Kd with Kd in nM; a lower number is a better binder. A pair that was not seen in that replicate is written "ND"; this usually means weak binding, but a binder can also be missed. Three control strains display no target. For library AAYL52, 28% of the pairings with them gave a signal, with a median of 3.91 and one signal in twenty below 2.90, so weak values seen in few replicates may be background. The control count says in how many pairings with the empty strains this scFv gave a signal, with their mean in brackets.

| # | changes | log10 Kd, replicates | empty controls |
|---|---|---|---|
| 1 | G24F+R90P+F95H | 3.73 ND 3.86 | 1/9 (3.90) |
| 2 | G24E+R28G+D91M | ND 4.26 ND | 5/9 (3.75) |
| 3 | D25C+Y29C+S88T | ND ND ND | 2/9 (4.01) |
| 4 | P54S+G94V+F98M | 2.89 2.25 2.48 | 6/9 (3.95) |
| 5 | L27R+N52C+P54E | 3.60 ND 3.03 | 2/9 (4.01) |
| 6 | S89R+G94A+F98L | 3.17 2.47 1.89 | 6/9 (4.34) |
| 7 | R28V+Y29L+P54F | 3.39 5.68 ND | 3/9 (3.57) |
| 8 | E23A+G49M+V97S | 4.23 ND ND | 2/9 (3.59) |
| 9 | E23Q+S26P+F95N | 3.01 3.13 2.51 | 3/9 (3.70) |
| 10 | L27W+N33F+N51D | ND 4.99 2.83 | 0/9 |
| 11 | G24T+R90A+D91I | 4.53 ND 4.22 | 1/9 (3.91) |
| 12 | E23H+R28L+F95Y | 2.39 2.32 1.92 | 4/9 (3.85) |
| 13 | N51S+N52C+R90N | 3.40 4.87 ND | 4/9 (4.33) |
| 14 | N51G+R90C+S93C | 2.76 2.44 2.70 | 3/9 (4.01) |
| 15 | R53V+R90S+S92I | 2.70 3.01 2.39 | 4/9 (3.63) |
| 16 | L27C+R53V | ND ND ND | 0/9 |
| 17 | N52M+P54Q+S92D | 2.98 3.12 3.25 | 4/9 (3.41) |
| 18 | S26Y+G94T+Q96P | 3.87 5.97 3.83 | 3/9 (4.08) |
| 19 | A32G+R53S+V97Y | 4.02 ND ND | 2/9 (3.94) |
| 20 | S89N+S93I+F95V | 3.65 ND 4.35 | 1/9 (3.81) |
| 21 | G24E+N52K+Q96E | 5.36 ND ND | 0/9 |
| 22 | P54K+S55E+S92C | 2.51 2.76 2.13 | 3/9 (4.01) |
| 23 | R53T+R90N+S93Y | 3.72 2.98 ND | 0/9 |
| 24 | Y30A+D91N+G94S | 2.45 1.96 1.88 | 4/9 (3.67) |
| 25 | E23A+N52Y+F98N | 3.15 3.00 2.72 | 2/9 (4.61) |
| 26 | Y30F+K50S+N52E | 2.36 3.01 2.53 | 2/9 (4.02) |
| 27 | Y31N+S92L+F98M | 3.52 3.79 2.97 | 1/9 (3.62) |
| 28 | R28H+R90M+F95N | ND 5.63 ND | 4/9 (3.72) |
| 29 | E23I+N52G | 3.54 3.29 3.19 | 3/9 (3.96) |
| 30 | R28V | 2.72 2.68 2.19 | 2/9 (4.27) |
| 31 | R90S+F95G+Q96Y | 2.53 2.41 4.25 | 4/9 (3.95) |
| 32 | G49I+S88Y+F98I | 5.16 ND 3.09 | 0/9 |
| 33 | L27E+Y30A+F98L | 2.99 2.84 2.60 | 3/9 (4.03) |

From the list, the first 2 with no signal in any replicate:

| changes | log10 Kd, replicates | empty controls |
|---|---|---|
| D25C+Y29C+S88T | ND ND ND | 2/9 (4.01) |
| L27C+R53V | ND ND ND | 0/9 |

Source: Engelhart et al. 2022 (doi:10.1038/s41597-022-01779-4), MIT Lincoln Laboratory and A-Alpha Bio; data file from the FLAb repository.